Entries after “also recorded” stand apart in the source; their conditions may differ.

Data set [1] in a line: in vivo. Also on record: species or system rat (male and female Wistar). Particulars: po, rat, administered orally, read-out: Toxicity LD50. The method, then: The animals were used in the experiment after being fasted for about 18 hours and only received food again five hours after administration of the product. After a three-week observation period, they were sacrificed with chloroform and autopsied. The organs were assessed macroscopically. The test compounds were dissolved in 1% strength CMC suspension and administered to the rats through a stomach tube in a volume of 5 ml/kg BW.

The test system of data set [2] is mice. As to the kind of experiment: Acetic acid extension test on mice (analgesic action). The note with it: versus the two comparison products, oral. The method, then:
(§1) (a) Acetic acid extension test on mice in accordance with the method of R. Koster et al., Fed. Prod.
(§2) Female mice of a N.M.R.I. strain with a body weight (BW) of between 21 and 28 g were used as the experimental animals. Groups of in each case 12 animals received 0.1 ml/10 g BW of a 0.6% strength acetic acid solution, injected intraperitoneally. The test substances were administered 30 minutes beforehand. Immediately after the acetic acid injection, the animals were placed individually and the typical extension movements occurring within 15 minutes were counted, these consisting of brief flexing of the abdominal muscles with withdrawal of the sides and subsequent extension of the rear of the body and of at least one rear extremity.
(§3) The test substances were administered orally in a volume of 10 ml/kg BW in 1% strength aqueous carboxymethylcellulose (CMC) suspension.

Assay in data set [3]: as above
Particulars: mouse, in vivo, po. The method, then: as §1, §2, §3

For data set [4], the system named is rats. As to the kind of experiment: Modified Randall-Selitto hyperalgesia test on rats (analgesic action). Particulars: versus comparison products, at ED50 of 85 mg/kg, rat, oral; 85 mg/kg. As to the method:
(§4) (b) Modified Randall-Selitto hyperalgesia test on rats in accordance with the method of Atkinson et al., J. Pharm. Pharmac.
(§5) Male Sprague-Dawley rats with a body weight of 200 to 300 g were used as the experimental animals. The experimental animals were given a subplantar injection of 0.2 ml of brewer's yeast suspension (40% of yeast in 0.9% strength NaCl solution) into the left hind paw under mild ether anaesthesia. After 5 hours, the gait of the animals over a metal grating was evaluated according to the following scale:
(§6) The evaluation was effected by determining the percentage of animals evaluated with stage 1 or 0.5, two animals given 0.5 being regarded as showing an analgesic effect.
(§7) The test substances were administered orally, to animals which had been fasted for 15 hours, in CMC suspension in a volume of 10 ml/kg BW two hours before the evaluation of the animals. In order to exclude subjective influences, the evaluation was performed by two people independently of one another and without knowledge of the pretreatment of the animals (n=10/dose). The ED50 values were determined with the aid of linear regression in accordance with the method of Fieller and Sidak.

Assay in data set [5]: as above
Particulars: rat, in vivo, po. As to the method:
as §4, §5, §6, §7

In the case of `Cc1oncc1C(=O)N1CCCCC1` [Example 1, N-(5-Methyl-4-isoxazolylcarbonyl)-piperidine], the LD50 at 504 h in data set [1] is 1240 mg/kg. Besides, the “Relative effectiveness in the pain test on mice” value in data set [2] is listed as “at least three times that of the two comparison products”. Further, the selectivity ratio is 27.6 in data set [3] and 14.6 in data set [5]. The “Relative analgesic activity, Randall-Selitto” value in data set [4] is reported as “twice as active as acetylsalicylic acid; also recorded: four times as powerful than Paracetamol”.

On to `CC(=O)Nc1ccc(O)cc1` [Paracetamol, reference compound], for which the median lethal dose (LD50) at 504 h in data set [1] stood at 1940 mg/kg.

Source of the values: patent publication US4636513A, “Isoxazole derivatives and medicaments containing these compounds” (Hoechst Aktiengesellschaft, priority 1984, dated 1987).
